# From article PMC5111430 (ACS chemical biology, 2016)
# Test system: WT4R0N tau
# Type: cell-based, human
# Conditions: HEK293T, transient WT4R0N tau, increasing concentrations, 24 h
structure (smiles),measurement,value
"CCN1/C(=C/C(C)=C/c2sc3ccccc3[n+]2CC)Sc2ccccc21.[I-] [carbocyanine, 3,3'-Diethyl-9-methylthiacarbocyanine iodide]",effect on tau levels (tau aggregation inhibitor scaffolds),lowered tau levels
